Among the data in PubChem BioAssay AID435003 (Sanford-Burnham Center for Chemical Genomics, 2010) are inhibition values, retold here.

The entries are a selection whose mix differs from that of the whole data set. Some of these compounds have results that are not shown, active ones among them. Activity calls are given as the source filed them. Cut-off read from the data, not from the text of the source: active = inhibition above about 50%; inactive = the rest.

As usually defined, the inhibition is the change of the read-out against control, counted positive when it falls.

The nature of this experiment: lowers stimulated NF-kB reporter luminescence – cell-based, uHTS, TCR NF-kB activation inhibitor project, primary screen (AID 435003). Conditions: Jurkat, PMA/ionomycin-induced NF-kB luciferase reporter, at 4 µM, active compounds read high. For orientation: A reporter such as luciferase makes a cellular process visible.
Regarding `COc1cc(C(=O)NCC2(N(C)C)CCCCC2)c([N+](=O)[O-])cc1OC`, the inhibition is inactive: -13.4%.
With `CN(C)C1(CNC(=O)c2ccc(Br)cc2)CCCCC1` the figure was inactive: -25.6%; with `O=C(NCC1(N2CCCCC2)CCCCC1)c1cccc(Cl)c1`, inactive: 9.43%.
For `COc1cccc(C(=O)NCC2(N3CCCCC3)CCCCC2)c1`, the inhibition was inactive: -2.99%.
On to `COc1ccc(Cl)cc1C(=O)NCC1(N(C)C)CCCCC1`, for which the inhibition was inactive: -5.93%.
As for `O=C(OC1CN2CCC1CC2)C(CO)(c1ccccc1)c1ccccc1` (centres undefined), the figure is inactive: 6.9%; as for `CN(C)c1cccc(C(=O)NCC2(N(C)C)CCCCC2)c1`, inactive: 1.52%; as for `CC(C)Oc1ccc(C(=O)NCC2(N(C)C)CCCCC2)cc1`, inactive: -12.6%.
As for `COc1ccc(Br)c(C(=O)NCC2(N3CCCCC3)CCCCC2)c1`, the figure is inactive: -8.29%.
Take `CN1[C@@H]2CC[C@H]1CC(OC(=O)C(O)(c1ccccc1)c1ccccc1)C2` (some centres undefined): the inhibition was inactive: -24.2%.
With `O=C(NCC1(N2CCCCC2)CCCCC1)c1cc([N+](=O)[O-])ccc1Cl` the figure was inactive: -11.7%; with `Cc1ccc(C(=O)NCC2(N3CCCCC3)CCCCC2)cc1`, inactive: -1.19%.
With `CC(C)N1C(=O)CC2(CCN(CCOC(=O)C(O)(c3ccccc3)c3ccccc3)CC2)C1=O` the figure was inactive: -8.46%; with `CCN(CC)CC(C)C(C)OC(=O)C(O)(c1ccccc1)c1ccccc1` (centres undefined), inactive: 0.0796%.
For `COc1cc(SC)ccc1C(=O)NCC1(N(C)C)CCCCC1`, the inhibition was inactive: -3.55%.
On to `Cc1ccccc1C(=O)NCC1(N2CCCCC2)CCCCC1`, for which the inhibition was inactive: -6.2%.
As for `CN(C)c1ccc(C(=O)NCC2(N(C)C)CCCCC2)cc1`, the figure is inactive: -32.9%.
As for `CN(C)C1CCCC1OC(=O)C(O)(c1ccccc1)c1ccccc1` (centres undefined), the figure is inactive: 9.51%; as for `CCN1CCCC(OC(=O)C2(O)c3ccccc3C=Cc3ccccc32)C1` (centres undefined), inactive: 6.93%; as for `Cc1cc(C(=O)NCC2(N3CCCCC3)CCCCC2)ccc1[N+](=O)[O-]`, inactive: -19.4%.
With `O=C(NCC1(N2CCCCC2)CCCCC1)c1cccc(Br)c1` the figure was inactive: 4.97%; with `COc1ccc(C(=O)NCC2(N(C)C)CCCCC2)cc1`, inactive: -4.01%.
With `C=CCN1CCN(CCOC(=O)C(O)(c2ccccc2)c2ccccc2)CC1`, the inhibition was inactive: 8.1%.
As for `O=C(NCC1(N2CCCCC2)CCCCC1)c1cc(F)c(F)cc1Cl`, the figure is inactive: 7.29%.
